{
  "sequences": {"note": "Sequences of proteins named here, by UniProt entry; tags and fusion partners are left off. Residues count along the entry.", "UniProt Q9NP99, 21-234": "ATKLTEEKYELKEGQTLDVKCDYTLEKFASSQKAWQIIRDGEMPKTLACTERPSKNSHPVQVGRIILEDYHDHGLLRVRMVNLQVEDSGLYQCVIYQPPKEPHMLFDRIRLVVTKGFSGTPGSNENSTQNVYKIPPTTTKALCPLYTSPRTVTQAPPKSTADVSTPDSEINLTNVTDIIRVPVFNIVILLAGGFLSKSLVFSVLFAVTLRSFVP"},
  "source": "patent US20200247889A1",
  "about": "(published 2020)",
  "binders": {"B1": {"name": "Pi-8421 (antibody, V domains shown)", "VH": "EVQLVESGGGLVQPGGSLRLSCAASGFDISYSSIHWVRQAPGKGLEWVASIYSSYGSTYYADSVKGRFTISADTSKNTAYLQMNSLRAEDTAVYYCARYYYSHAGWYVSGYWPAIDYWGQGTLVTVSS", "VL": "DIQMTQSPSSLSASVGDRVTITCRASQSVSSAVAWYQQKPGKAPKLLIYSASSLYSGVPSRFSGSRSGTDFTLTISSLQPEDFATYYCQQSSYSLITFGQGTKVEIK"}},
  "biological_target": "T1, human TREM1 (human, UniProt Q9NP99 21-234)",
  "T1 construct": "whole, on cells; also called hTREM1",
  "assay": "flow cytometry on HEK293 cells over-expressing human TREM-1",
  "description": "100,000 HEK 293 parental or over-expressing human or cynomolgus TREM-1 were plated in 96 well plates and dead cells were stained with Zombie Near Infrared (Biolegend). Titrations of indicated unconjugated antibodies were incubated with these cells within a range of 0 ug/ml to 30 ug/ml in a 1:4 or 1:5 dilution range across 8 points. Dependent on their isotype (hIgG1 or mIgG2a), these primary unconjugated antibodies were detected with Alexa Fluor 647 conjugated anti-human Fcγ or anti-mouse Fcγ secondary antibodies (Jackson Immunoresearch). Alexa Fluor 647 signal was measured by flow cytometry (BD Fortessa X-14, BD Biosciences). EC50 values were calculated by curve fitting signal generated from antibodies binding to over-expressing cells over background fluorescence generated from HEK293 parental cells in Graphpad Prism (Graphpad Software).",
  "data": [
    {"binder": "B1", "values": [
      {"measurement": "binding result", "result": "binds"}
    ]}
  ]
}
